Reference: ChEMBL document CHEMBL5523770 (J Med Chem, 2024)
Calls of active or inactive are those of the source. No cut-off for these calls is given here.

The chains behind the UniProt entries cited, without tags or fusion partners. Where a name states a change or a piece, a line headed by the entry shows the natural chain unless it says otherwise.
UniProt P43354, whole entry: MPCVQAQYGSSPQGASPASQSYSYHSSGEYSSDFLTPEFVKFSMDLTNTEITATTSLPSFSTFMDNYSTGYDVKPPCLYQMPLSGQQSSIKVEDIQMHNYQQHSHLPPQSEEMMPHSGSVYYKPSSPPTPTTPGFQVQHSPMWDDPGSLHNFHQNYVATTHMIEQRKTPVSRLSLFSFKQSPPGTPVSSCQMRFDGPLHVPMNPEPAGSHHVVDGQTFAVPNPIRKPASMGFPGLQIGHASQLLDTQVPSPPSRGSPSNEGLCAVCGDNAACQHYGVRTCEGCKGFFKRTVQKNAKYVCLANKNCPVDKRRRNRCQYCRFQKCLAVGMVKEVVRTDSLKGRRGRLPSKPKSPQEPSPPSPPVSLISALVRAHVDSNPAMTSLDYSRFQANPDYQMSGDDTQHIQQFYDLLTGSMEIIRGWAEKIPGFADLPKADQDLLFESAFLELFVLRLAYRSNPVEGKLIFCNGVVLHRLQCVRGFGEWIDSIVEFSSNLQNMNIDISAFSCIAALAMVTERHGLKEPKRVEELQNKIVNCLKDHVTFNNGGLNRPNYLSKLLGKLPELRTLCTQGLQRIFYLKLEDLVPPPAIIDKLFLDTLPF
UniProt P37231: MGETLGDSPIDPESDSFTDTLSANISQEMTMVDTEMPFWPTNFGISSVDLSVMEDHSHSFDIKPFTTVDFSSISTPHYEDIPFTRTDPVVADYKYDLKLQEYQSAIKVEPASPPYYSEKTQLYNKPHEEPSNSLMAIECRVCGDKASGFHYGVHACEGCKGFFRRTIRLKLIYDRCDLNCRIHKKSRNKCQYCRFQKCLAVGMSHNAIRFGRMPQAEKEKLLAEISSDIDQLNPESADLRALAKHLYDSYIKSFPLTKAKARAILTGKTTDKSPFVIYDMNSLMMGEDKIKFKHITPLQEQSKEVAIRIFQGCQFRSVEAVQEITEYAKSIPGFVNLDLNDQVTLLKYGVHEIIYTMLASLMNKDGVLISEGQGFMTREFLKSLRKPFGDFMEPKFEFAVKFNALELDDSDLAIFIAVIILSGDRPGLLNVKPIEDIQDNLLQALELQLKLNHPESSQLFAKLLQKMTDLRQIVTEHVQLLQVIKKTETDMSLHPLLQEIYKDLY

What was measured:
[1] = biological target: Nuclear receptor subfamily 4 group A member 2 (Homo sapiens, UniProt P43354); test: Agonist activity at Gal4-fused human full length Nurr1 LBD transfected in HEK293T cells incubated for 16 hrs by firefly/renilla based Dual-Glo luciferase assay; assay type: cell-based; details: filed as agonist
[2] = test system: N27; test: Antiproliferative activity against rat N27 cells assessed as inhibition of cell proliferation at 6 uM incubated for 7 days followed by replacement with fresh media containing compounds after 96 hrs; assay type: functional, cell-based; details: time 7.0 day
[3] = biological target: Peroxisome proliferator-activated receptor gamma (Homo sapiens) (UniProt P37231); test: Inverse agonist activity at human PPARgamma transfected in HEK293T cells incubated for 16 hrs by firefly/renilla based Dual-Glo luciferase assay; assay type: cell-based; details: filed as inverse agonist
[4] = test system: N27; test: Induction of apoptosis in rat N27 cells at 100 uM measured after 24 hrs by brightfield/ fluorescence imaging; assay type: functional, cell-based
[5] = test system: N27; test: Induction of necrosis in rat N27 cells at 100 uM measured after 24 hrs by brightfield/ fluorescence imaging; assay type: functional, cell-based
[6] = test system: N27; test: Sensitization of rat N27 cells to 6-hydroxydopamine assessed as inhibition of cell proliferation at 100 uM incubated for 7 days in presence of 6-OHDA followed by replacement with fresh media containing compounds after 96 hrs; assay type: functional, cell-based; details: time 7.0 day
[7] = test system: N27; test: Induction of apoptosis in rat N27 cells at 100 uM incubated for 24 hrs in presence of 6-OHDA by brightfield/ fluorescence imaging; assay type: functional, cell-based
[8] = test system: N27; test: Induction of apoptosis in rat N27 cells at 1 uM measured after 24 hrs by brightfield/ fluorescence imaging; assay type: functional, cell-based
[9] = test system: N27; test: Induction of necrosis in rat N27 cells at 1 uM measured after 24 hrs by brightfield/ fluorescence imaging; assay type: functional, cell-based
[10] = test system: N27; test: Antiproliferative activity against rat N27 cells assessed as inhibition of cell proliferation at 1 uM incubated for 7 days in presence of 6-OHDA followed by replacement with fresh media containing compounds after 96 hrs; assay type: functional, cell-based; details: time 7.0 day
[11] = test system: N27; test: Antiproliferative activity against rat N27 cells assessed as inhibition of cell proliferation at 1 uM incubated for 7 days followed by replacement with fresh media containing compounds after 96 hrs; assay type: functional, cell-based; details: time 7.0 day

Cc1nc(-c2ccccc2)c(-c2ccccc2)o1
Activity [1]: Active

NCCc1cc(O)c(O)cc1O
Activity [2]: inactive

CN(C)C(=O)CCc1nc(-c2ccccc2)c(-c2ccccc2)o1
Activity [3]: Active

O=C(O)CCc1nc(-c2ccccc2)c(-c2ccccc2)o1
Activity [4]: inactive
Activity [5]: inactive
Activity [6]: Active
Activity [7]: Active

Cc1cccc(C)c1-c1nc(CCC(=O)O)oc1-c1ccccc1
Activity [1]: Active

C#CCOc1cccc(-c2ccc(NC(=O)C3=C(C(=O)O)CCC3)c(F)c2)c1
Activity [8]: inactive
Activity [9]: inactive
Activity [10]: inactive
Activity [11]: inactive

O=C(O)Cc1nc(-c2ccccc2)c(-c2ccccc2)o1
Activity [3]: Active
